The text below walks through data of patent US6403602B1 (priority 1997, dated 2002).

Amino acid sequences for entries named in this document (tags omitted). A change or cut given only in a name is not applied to a line headed by its entry. Residues count along the entry.
UniProt A0A286XTF2, 1-366: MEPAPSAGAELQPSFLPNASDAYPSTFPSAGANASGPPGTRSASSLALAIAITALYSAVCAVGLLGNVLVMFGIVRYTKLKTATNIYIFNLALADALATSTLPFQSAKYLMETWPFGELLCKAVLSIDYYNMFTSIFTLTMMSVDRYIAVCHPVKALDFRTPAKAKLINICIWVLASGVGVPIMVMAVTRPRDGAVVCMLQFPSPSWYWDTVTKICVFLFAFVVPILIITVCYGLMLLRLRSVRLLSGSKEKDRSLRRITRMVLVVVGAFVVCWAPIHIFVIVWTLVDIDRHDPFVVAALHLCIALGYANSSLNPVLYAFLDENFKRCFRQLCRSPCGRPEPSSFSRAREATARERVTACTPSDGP
UniProt P41144: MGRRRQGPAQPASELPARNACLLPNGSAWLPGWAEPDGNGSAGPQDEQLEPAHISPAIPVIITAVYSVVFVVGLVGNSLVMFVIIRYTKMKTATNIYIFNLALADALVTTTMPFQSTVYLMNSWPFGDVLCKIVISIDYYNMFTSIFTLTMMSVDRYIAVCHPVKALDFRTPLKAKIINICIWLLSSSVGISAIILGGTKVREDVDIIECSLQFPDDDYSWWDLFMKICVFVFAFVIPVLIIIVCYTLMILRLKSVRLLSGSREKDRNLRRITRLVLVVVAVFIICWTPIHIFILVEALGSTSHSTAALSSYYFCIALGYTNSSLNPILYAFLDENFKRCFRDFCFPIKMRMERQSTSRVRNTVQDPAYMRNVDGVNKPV
UniProt A0ACM8Q262, 1-400: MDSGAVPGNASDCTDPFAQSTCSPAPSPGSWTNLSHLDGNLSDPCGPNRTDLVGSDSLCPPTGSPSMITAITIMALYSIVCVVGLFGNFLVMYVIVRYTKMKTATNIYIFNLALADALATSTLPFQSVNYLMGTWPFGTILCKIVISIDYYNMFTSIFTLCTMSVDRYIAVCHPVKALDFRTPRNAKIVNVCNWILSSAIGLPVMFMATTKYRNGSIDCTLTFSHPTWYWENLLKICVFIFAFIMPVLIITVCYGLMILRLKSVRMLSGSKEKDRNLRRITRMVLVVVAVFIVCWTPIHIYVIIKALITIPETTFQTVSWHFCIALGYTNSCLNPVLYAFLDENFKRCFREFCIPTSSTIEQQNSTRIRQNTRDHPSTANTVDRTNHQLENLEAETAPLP
UniProt P32300, whole entry: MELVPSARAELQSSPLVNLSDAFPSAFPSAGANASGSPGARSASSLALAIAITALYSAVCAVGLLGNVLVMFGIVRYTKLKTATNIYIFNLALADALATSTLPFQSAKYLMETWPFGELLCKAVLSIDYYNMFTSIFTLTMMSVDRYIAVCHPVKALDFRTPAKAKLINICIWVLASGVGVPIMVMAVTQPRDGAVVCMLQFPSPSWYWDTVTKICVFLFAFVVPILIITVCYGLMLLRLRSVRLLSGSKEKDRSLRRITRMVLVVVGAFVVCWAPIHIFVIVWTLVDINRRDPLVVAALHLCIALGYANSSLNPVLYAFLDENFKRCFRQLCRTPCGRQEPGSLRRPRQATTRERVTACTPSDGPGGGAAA

Assay [1] concerns the target T1, delta receptors (Cavia porcellus, UniProt A0A286XTF2).
T1 construct: The brains were then homogenized in 50 mM Tris HCl, buffer pH 7.7, using a Polytron; from tissue; host or cells: guinea pig brain homogenate (membrane pellet)
It is filed as binding, guinea pig.

For the next assay, the target named is kappa receptors (Cavia porcellus, UniProt P41144).
The target of another assay is T2, kappa1 sites (Cavia porcellus, UniProt P41144).
T2 construct: The brains were then homogenized in 50 mM Tris HCl, buffer pH 7.7, using a Polytron; from tissue; host or cells: guinea pig brain homogenate (membrane pellet)
It is filed as binding, guinea pig. The note with it: read-out: Ki κ1 [^3H]U69,593.

In another assay the target is mu opioid receptors (Cavia porcellus, UniProt A0ACM8Q262). The note with it: read-out: Ki μ [^3H]DAMGO.
Assay [2] concerns the target T3, delta receptors (Mus musculus, UniProt P32300).
T3 construct: The vas deferens from Swiss-Webster mice (30-35 g) were prepared as described by Hughes et al; from tissue; host or cells: mouse vas deferens (Swiss-Webster)
It counts as cell-based.

Setting [3] is: read-out: Ki δ, experiment done with [^3H]DPDPE.

Read-outs that look alike come from different tables or passages of the source. Where only a bound is given, the exact number is not on record here.

Consider (−) Cyclazocine, for which the Ki (commonly a measure of affinity in units of concentration, obtained from inhibition or displacement) at delta receptors [1] (setting [3]) was determined as 0.6 nM; on kappa1 sites, 0.1 nM. On kappa receptors, the “Guinea Pig Ileum DR with Nor-BNI” value is reported as 33.39. On kappa receptors, the “Guinea Pig Ileum Ke of Nor-BNI” value is on record as 0.89 ± 0.69.
Take (−) Pentazocine-succinate: the inhibition constant (Ki) at delta receptors [1] (setting [3]) was found to be 32.7 nM.
Consider Dynorphin (1-8), for which the figures for the Ki on delta receptors [1] (setting [3]), at mu opioid receptors and on kappa1 sites were 1.5 nM, 6.8 nM and 65 nM, respectively.
In the case of Dynorphin (1-11)-OH, the Ki at delta receptors [1] (setting [3]) worked out at 1.8 nM; on mu opioid receptors, 2.3 nM.
As for Dynorphin (1-13)-NH2, the figures for the inhibition constant Ki at delta receptors [1] (setting [3]), on mu opioid receptors and on kappa1 sites were 7.7 nM, 3.5 nM and 0.3 nM, respectively.
On to Dynorphin (1-13)-OH, for which the inhibition constant Ki at delta receptors [1] (read-out: Ki δ [^3H]Cl-DPDPE) is 16.3 nM.
On the same count and under the same terms, the result for Dynorphin (1-17)-OH reads 5.8 nM.
For Dynorphin A (1-17), the “Ratio (after Ke of CTAP)” value in the assay on mu receptors was 0.121. On kappa receptors, the “DR with Nor-BNI” value was found to be 102.20, the “Ke of Nor-BNI” value amounted to 0.20 and the “Ratio (after Ke of Nor-BNI)” value amounted to 0.302. On delta receptors [2], the “DR with Naltrindole” value is listed as 1.15, the “Ke of Naltrindole” value is given as 7.32 and the “Ratio (after Ke of Naltrindole)” value is on record as 0.003.
In the case of Dynorphin B, the “Ratio (after Ke of CTAP)” value with mu receptors was 0.056. On kappa receptors, the “DR with Nor-BNI” value was 75.48, the “Ke of Nor-BNI” value worked out at 0.28 and the “Ratio (after Ke of Nor-BNI)” value was 0.161. Moreover, on delta receptors [2], the “DR with Naltrindole” value is recorded as 2.10, the “Ke of Naltrindole” value is recorded as 0.95 and the “Ratio (after Ke of Naltrindole)” value turned out to be 0.024.
Take Dynorphin B-OH: the Ki on delta receptors [1] (setting [3]) was found to be 4.2 nM.
With Dynorphin(1-9)-OH, the values for the inhibitory constant (Ki) at delta receptors [1] (setting [3]), on mu opioid receptors and at kappa1 sites were 1 nM, 86.3 nM and 1.4 nM, respectively. The “Guinea Pig Ileum DR with Nor-BNI” value on kappa receptors stood at 75.48. Moreover, the “Guinea Pig Ileum Ke of Nor-BNI” value on kappa receptors amounted to 0.29. Besides, the “Mouse Vas Deferens Ratio (Naltrindole)” value on delta receptors [2] was found to be 0.082.
In the case of Leu-Enkephalin, the Ki at delta receptors [1] (read-out: Ki δ [^3H]Cl-DPDPE) stood at 1.6 nM.
On to Met-Enkephalin, for which the inhibition constant Ki on delta receptors [1] (read-out: Ki δ [^3H]Cl-DPDPE) was determined as 1.1 nM. Also, at kappa receptors, the “Guinea Pig Ileum DR with Nor-BNI” value is 6.07 and the “Guinea Pig Ileum Ke of Nor-BNI” value was 3.95.
For the substance [D-Pen^3.5-enkephalin] [DPDPE-OH], the values for the Ki on delta receptors [1] (read-out: Ki δ [^3H]Cl-DPDPE) and at mu opioid receptors were 2.8 nM and over 10000 nM, respectively.
